Results taken from US5254569A, “(Amidomethyl)nitrogen heterocyclic analgesics” (The Du Pont Merck Pharmaceutical Company, priority 1991, dated 1993).

By UniProt entry, the sequences of proteins in these tests, tags left out. Where a name states a change or a piece, a line headed by the entry shows the natural chain unless it says otherwise.
UniProt P41144: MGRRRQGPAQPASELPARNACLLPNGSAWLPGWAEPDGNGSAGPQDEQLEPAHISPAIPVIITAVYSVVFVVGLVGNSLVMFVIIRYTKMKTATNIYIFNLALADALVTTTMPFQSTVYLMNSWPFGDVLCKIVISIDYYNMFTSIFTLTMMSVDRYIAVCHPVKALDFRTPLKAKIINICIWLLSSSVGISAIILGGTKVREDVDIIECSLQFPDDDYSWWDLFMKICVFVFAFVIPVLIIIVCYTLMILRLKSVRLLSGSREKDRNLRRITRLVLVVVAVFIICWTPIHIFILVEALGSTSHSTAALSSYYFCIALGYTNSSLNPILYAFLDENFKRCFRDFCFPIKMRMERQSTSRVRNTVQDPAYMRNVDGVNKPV

Target: kappa opioid receptor (Cavia porcellus, UniProt P41144)
Assay: opioid receptor binding, kappa ((-)-[3H]ethylketocycloazocine)
Design: species or system guinea pig (method, b1124); rat (Table 4 title)
Conditions: read-out: Receptor Binding Ki KAPPA; 1 nM (-)-[3H]EKC with 500 nM DADLE and 20 nM sufentanil; brain membranes; apparent Ki

First: CN1CCCC[C@@H]1[C@H](c1ccccc1)N(C)C(=O)COc1ccc(Cl)c(Cl)c1 [Example 112]
Second: CN1CCCC[C@H]1[C@@H](c1ccccc1)N(C)C(=O)COc1ccc(Cl)c(Cl)c1 [Example 113]
The Ki of the first is 5.9-fold lower: 415 nM for the first, 2430 nM for the second.

Compared with CN1CCCCC1C(c1ccccc1)N(C)C(=O)Cc1c(F)c(F)c(F)c(F)c1F (centres unmarked) [Example 10], CN1CCCCC1C(c1ccccc1)N(C)C(=O)Cc1ccc(Cl)cc1Cl (centres unmarked) [Example 13] is 3-fold lower in Ki: 57 nM for the first, 19 nM for the second.

Going from CN1CCCC[C@H]1[C@H](c1ccccc1)N(C)C(=O)COc1ccc(Cl)c(Cl)c1 [Example 110] to CN1CCCC[C@@H]1[C@@H](c1ccccc1)N(C)C(=O)COc1ccc(Cl)c(Cl)c1 [Example 111], the Ki rises from 3 nM to 18 nM (6-fold).

Going from CN1CCCC[C@H]1[C@H](c1ccccc1)N(C)C(=O)Cc1ccc(Cl)c(Cl)c1 [Example 106, (+)-[2S-(R*,R*)]-(3,4-dichlorophenyl)-N-methyl-N-[1-(1-methyl-2-piperidinyl)phenylmethyl]acetamide hydrochloride] to CN1CCCC[C@H]1[C@@H](c1ccccc1)N(C)C(=O)Cc1ccc(Cl)c(Cl)c1 [Example 109], the Ki rises from 6 nM to 1660 nM (280-fold).

Compared with CN1CCCC[C@H]1[C@H](c1cccc(O)c1)N(C)C(=O)Cc1ccc(Cl)c(Cl)c1 [Example 122], CN1CCCCC1C(c1cccc(O)c1)N(C)C(=O)Cc1ccc(Cl)c(Cl)c1 (centres unmarked) [Example 6, benzeneacetamide,3,4-dichloro-N-[1-(3-hydroxyphenyl)-1-(1-methyl-2-piperidinyl)methyl]-N-methyl-, hydrobromide] is 3-fold higher in Ki: 3 nM for the first, 9 nM for the second. The first binds more tightly here.

Going from CN1CCCC[C@H]1[C@H](c1ccccc1)N(C)C(=O)Cc1cccc2occc12 [Example 114] to CN1CCCCC1C(c1ccccc1)N(C)C(=O)Cc1ccc(Cl)c(Cl)c1 (centres unmarked), the Ki falls from 13 nM to 8 nM (1.6-fold). The second binds more tightly here.

C=CCN1CCCC[C@H]1[C@H](c1ccccc1)N(C)C(=O)Cc1ccc(Cl)c(Cl)c1 [Example 180] and CN1CCCC[C@@H]1[C@@H](c1ccccc1)N(C)C(=O)Cc1ccc(Cl)c(Cl)c1 [Example 107] are within 1.5-fold of each other in Ki: 46 nM for the first, 42 nM for the second.

Compared with COc1cccc(C(C2CCCCN2C)N(C)C(=O)Cc2ccc(Cl)c(Cl)c2)c1 (centres unmarked) [Example 5, benzeneacetamide,3,4-dichloro-N-[1-(3-methoxyphenyl)-1-(1-methyl-2-piperidinyl)methyl]-N-methyl-, hydrochloride], COc1cccc([C@@H]([C@@H]2CCCCN2C)N(C)C(=O)Cc2ccc(Cl)c(Cl)c2)c1 [Example 120] is 8.9-fold lower in Ki: 152 nM for the first, 17 nM for the second. The second binds more tightly here.

First: CN1CCCC[C@H]1[C@H](c1ccc(F)cc1)N(C)C(=O)COc1ccc(Cl)c(Cl)c1 [Example 136]
Second: CN1CCCC[C@H]1[C@H](c1ccc(F)cc1)N(C)C(=O)Cc1ccc(Cl)c(Cl)c1 [Example 118]
The Ki of the first is 3.5-fold lower: 2 nM for the first, 7 nM for the second.

Compared with CN1CCCCC1C(c1ccccc1)N(C)C(=O)COc1ccc(Cl)c(Cl)c1 (centres unmarked) [Example 14], CN1CCCC[C@H]1[C@H](c1cccc(O)c1)N(C)C(=O)COc1ccc(Cl)c(Cl)c1 [Example 144] is 7-fold lower in Ki: 7 nM for the first, 1 nM for the second.

For COc1cccc([C@@H]([C@@H]2CCCCN2C)N(C)C(=O)COc2ccc(Cl)c(Cl)c2)c1 [Example 140], the Ki was 14 nM.

Same assay, conditions: read-out: Receptor Binding Ki KAPPA; 1 nM (-)-[3H]EKC with 500 nM DADLE and 20 nM sufentanil; brain membranes; apparent Ki; hydrochloride

CN1CCCCC1C(c1ccccc1)N(C)C(=O)Cc1ccc(Cl)c(Cl)c1 (centres unmarked) gave a Ki of 7 nM.

System: not given
Assay: not given
Conditions: literature/general knowledge; cited from earlier work

In the case of CN(C(=O)Cc1ccc(Cl)c(Cl)c1)[C@@H]1CCCC[C@H]1N1CCCC1 (relative stereo), the sedation in mice is listed as “sedation is characteristic”.

Counter-ions that a name gives are not always drawn.
